Experimental data: ChEMBL document CHEMBL5726968, “Mammalian and bacterial nitric oxide synthase inhibitors” (2018)

Sequences of proteins named here, by UniProt entry; tags and fusion partners are left off.
UniProt P35228, whole entry: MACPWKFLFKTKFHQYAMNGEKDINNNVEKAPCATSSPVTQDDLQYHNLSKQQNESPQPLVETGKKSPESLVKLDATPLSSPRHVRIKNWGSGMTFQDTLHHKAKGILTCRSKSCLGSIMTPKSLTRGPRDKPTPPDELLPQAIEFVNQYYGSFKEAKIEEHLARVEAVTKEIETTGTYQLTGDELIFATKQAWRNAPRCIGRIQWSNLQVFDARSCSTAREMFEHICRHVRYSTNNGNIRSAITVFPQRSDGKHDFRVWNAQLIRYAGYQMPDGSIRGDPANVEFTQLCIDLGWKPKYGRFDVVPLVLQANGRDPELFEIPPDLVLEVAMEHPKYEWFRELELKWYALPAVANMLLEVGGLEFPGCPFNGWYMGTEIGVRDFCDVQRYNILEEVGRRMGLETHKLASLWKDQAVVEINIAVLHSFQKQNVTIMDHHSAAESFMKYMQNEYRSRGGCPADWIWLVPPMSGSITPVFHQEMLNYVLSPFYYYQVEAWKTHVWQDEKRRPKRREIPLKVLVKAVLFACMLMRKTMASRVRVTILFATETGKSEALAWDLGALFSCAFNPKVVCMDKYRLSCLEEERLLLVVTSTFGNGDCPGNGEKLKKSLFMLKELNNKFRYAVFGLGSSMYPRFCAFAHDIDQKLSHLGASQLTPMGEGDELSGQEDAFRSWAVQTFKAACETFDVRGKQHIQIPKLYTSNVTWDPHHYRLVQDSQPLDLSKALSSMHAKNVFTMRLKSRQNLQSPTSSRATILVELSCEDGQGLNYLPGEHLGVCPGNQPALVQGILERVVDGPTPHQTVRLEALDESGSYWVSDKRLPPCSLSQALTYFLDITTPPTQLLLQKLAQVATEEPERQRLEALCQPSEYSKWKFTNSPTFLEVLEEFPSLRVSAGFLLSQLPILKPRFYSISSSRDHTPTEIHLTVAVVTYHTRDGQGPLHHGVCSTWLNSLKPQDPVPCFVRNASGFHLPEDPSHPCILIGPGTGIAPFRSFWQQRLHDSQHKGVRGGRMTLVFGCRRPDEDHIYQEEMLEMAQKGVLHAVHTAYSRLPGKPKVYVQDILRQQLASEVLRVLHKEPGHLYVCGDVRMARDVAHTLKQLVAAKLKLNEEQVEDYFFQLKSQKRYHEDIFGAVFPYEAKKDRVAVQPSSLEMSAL

Biological target: Nitric oxide synthase, inducible (Homo sapiens, UniProt P35228)
Assay: Inhibition Assay: The NOSs isoform assays involved subjecting 3-8 to an oxyhemoglobin NO capture assay using a Biotek Gen5™ microplate reader.

- Ki: 1450 nM
SMILES: Cc1cc(N)nc(CCc2cncc(CCc3cc(C)cc(N)n3)c2)c1
